US20240115662A1, “METHODS OF TREATING HYPOGONADOTROPIC HYPOGONADISM AND COGNITION IMPAIRMENT FOLLOWING A TRAUMATIC BRAIN INJURY” (WISCONSIN ALUMNI RESEARCH FOUNDATION, priority 2021, published 2024)

Key:
hESC = assay: P4 secretion into media from hESC; type: cell-based, human; conditions: hCG 500 mIU/ml, 6 days
Excerpt: The concentration of P4 secreted into the media from hESCs treated ±hCG (500 mIU/ml) for 6 days. Results are expressed as micrograms P4 per microgram cellular protein, mean±SEM, n=3; *P<0.001.
hCG, like LH, is the main regulator of sex steroid synthesis, inducing the production of P4 which is converted into androstenedione/T and finally E2.

[1] = system: human embryonic stem cells (hESC); assay: hESC proliferation, trypan blue assay; type: cell-based; conditions: hCG 500 mIU/ml, 6 days
Experimental: Above: A schematic of the LHCGR activation site and binding site of rabbit polyclonal antibody against amino acids 15 to 38 of the extracellular binding domain.
FIG. 5A. hESC were grown in TESR1 media-Li in the presence of E2 (10 nM), P4 (2 μM) or E2 (10 nM)+P4 (2 μM) for 6 d and cell proliferation measured using the trypan blue assay. Results are expressed as mean±SEM, n=3 (*p<0.05, **p<0.005 compared to 6 d control). FIG. 5B. Equal amounts of protein from cell lysates of hESC treated for 9 d as described above were analyzed by immunoblot using a monoclonal antibody against nestin (clone 10C2; Chemicon, CA, USA). FIG. 5C. hESC were cultured for 4 days, enzymatically lifted and placed into EB media (containing serum) and rocked gently for an additional 4 days prior to being placed in one of two neural induction medias for an additional 11 days, where P4 was either absence or present. During this transition from EB to rosettes, colony structures treated with P4 also were treated with a Progesterone Receptor (PR) antagonist (RU-486; 20 μM) for 11 days. At 19 day, morphological observation and molecular analysis were performed. (i) Control structure, a minimum of three rosette structures were observed inside the cystic cavity (arrows). […] Equal amounts of protein from cell lysates of above structures were analyzed by immunoblot for nestin. […]

[2] = system: adult male rats with CCI injury; assay: Gross lesion size after CCI; type: in vivo, rat
Experimental: To test the effects of hCG on cognitive and motor recovery, 69 adult male rats (5-month of age) with CCI injury (group size, n=31), sham surgery (n=24) or non-surgical control (NSCon; n=14) were immediately administered saline (n=32) or hCG (200 mIU/kg/2 days n=37) over 28 d. On PID 2, 6, 9, 13 and 23, all rats were tested for vestibulomotor performance (Rotarod) and on PID 6-10 and 20-22 the same rats were tested for learning and memory (Morris water maze (MWM)), respectively. Probe Test 1 and 2 (i.e., swimming in tank for 60 s without MWM platform) were conducted on PID 12 and 24. At the end of behavioral testing, rat brains were collected, digitally imaged and analyzed for gross lesion size (% of whole brain surface area). Note that there was considerable overlap between NSCon and Sham groups (see small standard deviations for the data) and are therefore presented as one group.

[3] = system: adult male Sprague Dawley rats with CCI injury to the mPFC; assay: Reversal of hypogonadism after Sham surgery or CCI to the mPFC (Example 7); type: in vivo, rat; conditions: hCG 400 IU/kg/2 days over 29 d
Experimental: Plasma concentrations (mean±SEM) of testosterone and progesterone at PID-10, 1, 11, 19 and 29. Data were analyzed using 3-way repeated measures ANOVA; post-hoc analyses were performed using the Tukey multiple comparison test. Difference letters indicate significant differences among groups over days (P<0.05). Similar significant declines in circulating concentrations of T (74.5%) and P4 (59.0%) were observed by PID1 for CCI injured animals (i.e., craniectomy+CCI+saline group). The hypogonadism induced by the surgery/CCI in both groups was maintained through day 29.
Over the last 3.5 years our lab has used controlled cortical impact (CCI) injury, a highly replicable form of focal-penetrating TBI in adult male rats, to test for neurohormones with efficacy as a treatment for TBI. The CCI to the mPFC used is moderate-severe in magnitude (injury coordinates A/P=+2.5 mm from Bregma (b); M/L=0.0 mm from midline; D/V=−3.0 to −3.5 mm from brain surface; impactor size=5 mm; velocity=2.25 m/s; dwell=100 ms; impact depth=3.5 mm). Bilateral damage to the mPFC from the CCI and retrograde degeneration of cholinergic hippocampal neurons together disrupts grip strength, locomotion, motor coordination, spatiotemporal conditioning, and increases anxiety-like behavior.

[4] = in vivo; cited from earlier work

hCG: heterodimeric glycoprotein hormone (α SEQ ID NO:1, β SEQ ID NO:2); given to the rats as Pregnyl
secretion of P4 from hESC (hESC): markedly increased the secretion of P4 | effect on suppression of hESC division by LHCGR blocking antibody [1]: reversed by treatment with hCG | reduction of gross lesion size compared to vehicle treated animals [2]: 29.1% | gross lesion size as percent of total cortical area ([2]; immediate and chronic hCG): 7.3±1.2% | effect on hypogonadism (T and P4) induced by Sham surgery or CCI [3]: immediately reversed the hypogonadism | half-life [4]: about 36 hours
